In patent publication US20240335465A1 (University of Virginia Patent Foundation, priority 2021, published 2024):

System: DDR signaling
Assay: DDR signaling immunoblotting in THP1 cells
Settings: 16 hours

SMILES: Nc1nc2c(ncn2[C@@H]2O[C@@H]3COP(=O)(O)O[C@H]4[C@@H](O)[C@H](n5cnc6c(N)ncnc65)O[C@@H]4COP(=O)(O)O[C@@H]2[C@@H]3O)c(=O)[nH]1 [cGAMP, cyclic guanosine monophosphate-adenosine monophosphate]
- phosphorylation of histone H2AX (γH2AX), ATM, and CHK2: induced phosphorylation of all these proteins
